The entries are a selection whose mix differs from that of the whole data set. Activity calls are given as the source filed them. Rule as the data show it: active = inhibition above about 30%; inactive = the rest.
What follows are compounds tested against Ubiquitin carboxyl-terminal hydrolase 7 (Homo sapiens) (UniProt Q93009) (assay: blocks human USP7 ubiquitin-rhodamine cleavage (AID 1645854)). Conditions: purified USP7, Ub-rhodamine cleavage fluorescence; at 20 µM; hits give high values.

The chains behind the UniProt entries cited, without tags or fusion partners.
UniProt Q93009, whole entry: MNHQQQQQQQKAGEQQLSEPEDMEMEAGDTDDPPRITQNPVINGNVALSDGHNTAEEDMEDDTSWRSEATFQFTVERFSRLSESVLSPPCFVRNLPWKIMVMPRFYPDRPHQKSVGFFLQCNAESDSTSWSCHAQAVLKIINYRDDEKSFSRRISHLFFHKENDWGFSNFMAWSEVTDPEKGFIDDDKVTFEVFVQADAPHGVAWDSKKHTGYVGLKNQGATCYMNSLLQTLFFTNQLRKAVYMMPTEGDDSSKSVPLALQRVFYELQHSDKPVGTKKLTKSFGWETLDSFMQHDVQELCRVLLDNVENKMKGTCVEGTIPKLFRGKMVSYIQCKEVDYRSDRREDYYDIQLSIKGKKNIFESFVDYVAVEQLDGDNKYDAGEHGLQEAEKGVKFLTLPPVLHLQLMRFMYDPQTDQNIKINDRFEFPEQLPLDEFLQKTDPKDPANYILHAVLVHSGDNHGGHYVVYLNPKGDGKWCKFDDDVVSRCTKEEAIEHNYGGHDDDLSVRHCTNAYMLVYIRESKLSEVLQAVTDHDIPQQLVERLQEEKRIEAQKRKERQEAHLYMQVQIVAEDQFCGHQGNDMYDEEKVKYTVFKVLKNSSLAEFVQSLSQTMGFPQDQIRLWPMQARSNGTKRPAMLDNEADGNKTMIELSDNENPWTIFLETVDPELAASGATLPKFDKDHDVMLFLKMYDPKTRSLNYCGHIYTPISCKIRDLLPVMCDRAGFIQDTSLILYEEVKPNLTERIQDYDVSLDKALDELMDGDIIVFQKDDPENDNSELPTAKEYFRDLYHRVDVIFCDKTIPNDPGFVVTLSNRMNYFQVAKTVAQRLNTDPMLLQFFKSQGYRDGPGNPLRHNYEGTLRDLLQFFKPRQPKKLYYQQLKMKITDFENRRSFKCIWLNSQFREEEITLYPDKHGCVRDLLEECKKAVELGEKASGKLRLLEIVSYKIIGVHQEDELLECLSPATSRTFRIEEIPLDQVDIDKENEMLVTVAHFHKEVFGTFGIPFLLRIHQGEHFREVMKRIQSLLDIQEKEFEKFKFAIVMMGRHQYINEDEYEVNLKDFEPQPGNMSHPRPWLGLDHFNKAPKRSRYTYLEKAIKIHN

SMILES	inhibition
CN(C)c1ccc(C(=O)NCC2(N3CCCCC3)CCCCC2)cc1	inactive: 1.88%
N#Cc1ccc(C(=O)NCC2(N3CCCCC3)CCCCC2)cc1	inactive: -2.28%
O=C(NCC1(N2CCOCC2)CCCCC1)c1ccccc1Cl	inactive: -3.81%
O=C(NCC1(N2CCCCC2)CCCCC1)c1ccc2ncsc2c1	inactive: -0.266%
Cc1ccccc1C(=O)NCC1(N2CCOCC2)CCCCC1	inactive: 2.61%
Cc1cc(C(=O)NCC2(N3CCOCC3)CCCCC2)c2ccccc2n1	inactive: 2.62%
CC1CN(CCc2ccccc2)CCC1=O (stereo not drawn)	inactive: 0.237%
O=C(NCC1(N2CCCCC2)CCCCC1)c1ccc(F)cc1	inactive: -3.35%
